# Measurements taken from patent US20160362399A1, “ARYL, HETEROARYL, AND HETEROCYCLIC COMPOUNDS FOR TREATMENT OF COMPLEMENT MEDIATED DISORDERS” (Achillion Pharmaceuticals, Inc., priority 2014, published 2016).
# By UniProt entry, the sequences of proteins in these tests, tags left out. Residues count along the entry.
# UniProt P00746, 26-253: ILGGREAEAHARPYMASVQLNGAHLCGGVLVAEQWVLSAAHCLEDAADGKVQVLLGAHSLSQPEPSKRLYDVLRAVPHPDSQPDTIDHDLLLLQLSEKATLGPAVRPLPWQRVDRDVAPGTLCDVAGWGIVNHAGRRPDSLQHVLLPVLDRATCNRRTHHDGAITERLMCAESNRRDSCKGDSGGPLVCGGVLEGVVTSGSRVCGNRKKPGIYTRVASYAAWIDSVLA
# Target: T1, Human factor D (Homo sapiens, UniProt P00746)
# T1 construct: purified from human serum; purchased Complement Technology, Inc; host or cells: human serum
# Test: Human Factor D Assay
# Assay type: biochemical
# Description: Other standard factor D inhibition assays are also available.
# Human factor D (purified from human serum, Complement Technology, Inc.) at 80 nM final concentration is incubated with test compound at various concentrations for 5 minutes at room temperature in 50 mM Tris, 1M NaCl, pH 7.5. A synthetic substrate Z-L-Lys-SBzl and DTNB (Ellman's reagent) are added to final concentrations of 100 μM each. The increase in color is recorded at OD405 nm in a microplate in kinetic mode over 30 minutes with 30 second time points in a spectrofluorimeter. IC50 values are calculated by non-linear regression from the percentage of inhibition of complement factor D activity as a function of test compound concentration.
row,Compound,IC50 [µM]
1,"CC(=O)c1cn(CC(=O)N2C[C@H](F)C[C@H]2C(=O)Nc2cccc(OCc3ccccc3)n2)c2ccc(-c3ccnnc3)cc12 [Compound 60, (2S,4R)-1-(2-(3-acetyl-5-(pyridazin-4-yl)-1H-indol-1-yl)acetyl)-N-(6-(benzyloxy)pyridin-2-yl)-4-fluoropyrrolidine-2-carboxamide]",1 to 10
2,"NC(=O)c1nn(CC(=O)N2C[C@H](F)C[C@H]2C(=O)Nc2cncc(Br)c2)c2ccc(-c3ccnnc3)cc12 [Compound 90, 1-(2-((2S,4R)-2-(5-bromopyridin-3-ylcarbamoyl)-4-fluoropyrrolidin-1-yl)-2-oxoethyl)-5-(pyridazin-4-yl)-1H-indazole-3-carboxamide]",1 to 10
3,"CC(=O)c1cn(CC(=O)N2C[C@H](F)C[C@H]2C(=O)Nc2cc(C)nn2-c2ccccc2F)c2ccc(-c3ccnnc3)cc12 [Compound 160, (2S,4R)-1-(2-(3-acetyl-5-(pyridazin-4-yl)-1H-indol-1-yl)acetyl)-4-fluoro-N-(1-(2-fluorophenyl)-3-methyl-1H-pyrazol-5-yl)pyrrolidine-2-carboxamide]",1 to 10
